# Laboratory results as given in ChEMBL document CHEMBL3774321, “Systematic diversification of benzylidene heterocycles yields novel inhibitor scaffolds selective for Dyrk1A, Clk1 and CK2” (Eur J Med Chem, 2016).
# Experiments:
# Homo sapiens [1] = species on record: Homo sapiens; experiment: Selectivity ratio of IC50 for recombinant human GST-tagged CLK1 catalytic domain (129 to 484 residues) expressed in Escherichia coli to IC50 for recombinant human N-terminal His6-tagged DYRK1A catalytic domain expressed in Escherichia coli BL21(DE3) cells
# Homo sapiens [2] = species on record: Homo sapiens; experiment: Selectivity ratio of IC50 for full length recombinant human GST-tagged DYRK1B expressed in insect cells to IC50 for recombinant human N-terminal His6-tagged DYRK1A catalytic domain expressed in Escherichia coli BL21(DE3) cells
Structure (SMILES),Ratio IC50 (Homo sapiens [1]),Ratio IC50 (Homo sapiens [2])
COc1ccc(/C=C2/SC(=S)NC2=O)cc1,23,–
COc1ccc(/C=C2\CC(C)OC2=O)cc1 (configuration not stated),–,9
